Values joined by “and” are separate entries in the source; they are usually repeats but may differ in a detail not shown here. Equal values may be shown once. The campaign covered roughly 350,000 compounds. About 450 (0.13%) were called active.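 The calls were made as follows: active = replicate mean at a twofold rise or more (about +100% in these data); inactive = the rest.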 The list comes from a sample in which actives are over-represented; it also holds similar structures and randomly drawn compounds. The source holds several records for some structures; these can differ, active in one and inactive in another.

This assay is described as follows: modulators of yeast start codon fidelity, primary screen, whole organism, S. cerevisiae, single point, plate reader (AID 602363). The conditions noted are these: S. cerevisiae UUG-firefly luciferase reporter, luminescence/redox ratio; at 18.7 µM; stronger effect = higher value.
Take `O=C(C[C@@H]1C[C@H]2c3cc(NC(=O)NC4CCCCC4)ccc3O[C@H]2[C@H](CO)O1)NCc1ccncc1`: the activity score is 1.45% (inactive). On to `CCCN1C[C@H](C)[C@H](OC)CN(C)C(=O)c2cc(NC(=O)C3CCOCC3)ccc2OC[C@@H]1C`, for which the activity score is 7.64% (inactive). In the case of `C[C@H](CO)N1C[C@H](C)[C@@H](CN(C)Cc2ccc(Cl)c(Cl)c2)Oc2ccc(NC(=O)Nc3ccc(C(F)(F)F)cc3)cc2CC1=O`, the activity score was -6.41% (inactive).

Regarding `COc1ccc(S(=O)(=O)N(C)C[C@@H]2OCCCC[C@@H](C)Oc3ccc(NC(=O)c4ccccc4)cc3C(=O)N([C@@H](C)CO)C[C@H]2C)cc1`, the activity score is -7.34% (inactive). `CO[C@H]1CN(C)C(=O)c2cc(NC(=O)Nc3cccc(F)c3)ccc2OC[C@H](C)N(C(C)=O)C[C@H]1C`: the activity score was 2.41% (inactive). For `CCCc1cn(CC[C@@H]2CC[C@@H](NS(=O)(=O)c3ccccc3Cl)[C@@H](CO)O2)nn1`, the activity score is -13.1% (inactive). Take `CN1C[C@@H]2[C@H](c3ccccc31)[C@@H](CO)N2C(=O)Nc1ccccc1`: the activity score was -3.49% (inactive). For `C[C@@H]1CN([C@H](C)CO)C(=O)c2cc(NC(=O)c3ccncc3)ccc2O[C@H]1CN(C)C(=O)Nc1ccc(C(F)(F)F)cc1`, the activity score is -1.07% (inactive). For `CCC(=O)N1C[C@@H](C)[C@H](OC)CN(C)C(=O)c2ccc(NC(=O)Nc3ccccc3)cc2OC[C@@H]1C`, the activity score was 40.8% (inactive). Next, `C[C@H]1CCCCO[C@H](CN(C)C(=O)NC2CCCCC2)[C@@H](C)CN([C@@H](C)CO)C(=O)c2cc(NC(=O)Nc3ccc4c(c3)OCO4)ccc2O1`: -4.52% (inactive). On to `C[C@H]1CCCCO[C@H](CN(C)Cc2ccc(C(F)(F)F)cc2)[C@@H](C)CN([C@@H](C)CO)C(=O)c2cc(NC(=O)C3CCCCC3)ccc2O1`, for which the activity score was 13.7% (inactive). As to `CCc1ccc(CN2C(=O)c3ccccc3C2C(=O)NCC2CCCO2)cc1` (configuration not stated), the activity score is -17.4% (inactive). Regarding `CC1CCC(NC(=O)C2c3ccccc3C(=O)N2Cc2ccc3c(c2)OCO3)CC1` (configuration not stated), the activity score was 619% (active). In the case of `O=C(Nc1ccc(Cl)cc1)C1c2cccc[n+]2CC(=O)N1Cc1ccc2c(c1)OCO2` (configuration not stated), the activity score was -9.17% (inactive).

`COc1ccc(S(=O)(=O)Nc2ccc3c(c2)CC(=O)N([C@H](C)CO)C[C@@H](C)[C@H](CN(C)S(=O)(=O)c2c(C)noc2C)O3)cc1`: the activity score is -0.184% (inactive). As to `N#C[C@@H]1[C@H](c2ccc(C#Cc3cccc(F)c3)cc2)[C@@H](CO)N1C(=O)C1CCCC1`, the activity score is -38.1% (inactive).

With `CN(C)CC(=O)N[C@@H]1CC[C@H](CC(=O)NCc2ccc(Cl)cc2)O[C@H]1CO`, the activity score is -7.2% (inactive). Take `O=C(NCC[C@@H]1CC[C@H](NC(=O)C2CC2)[C@@H](CO)O1)c1cc(Cl)cc(Cl)c1`: the activity score is 4.52% (inactive). Consider `C[C@@H]1CN([C@H](C)CO)C(=O)c2cc(-c3ccc(C#N)cc3)cnc2O[C@@H]1CN(C)CC1CC1`, for which the activity score was -0.028% (inactive). Take `CO[C@H]1CN(C)C(=O)c2cc(NS(C)(=O)=O)ccc2OC[C@@H](C)N(Cc2ccccc2)C[C@@H]1C`: the activity score is 1.29% (inactive). On to `CC(=O)Nc1ccccc1OC(=O)N1CCOCC1`, for which the activity score is -18.2% (inactive).

As to `CC(=O)Nc1ccccc1-c1cn(CC(=O)N2CCOCC2)nn1`, the activity score was 127% (active).

Regarding `CCOC(=O)c1ccccc1NC(=O)COC(=O)CCC(=O)N1CCOCC1`, the activity score was 19.5% (inactive). With `C[C@H](CO)N1C[C@H](C)[C@H](CN(C)Cc2ccc(Cl)c(Cl)c2)OCCCC[C@H](C)Oc2ccc(NC(=O)NC3CCCCC3)cc2C1=O`, the activity score was -1.13% (inactive). Turning to `CCOCN(C(=O)Cn1c(C(C)O)nc2ccccc21)c1c(C)cccc1CC` (configuration not stated), the activity score was -13.4% (inactive).

For `CCc1cccc(C)c1N(C(=O)Cn1c(CO)nc2ccccc21)C(C)COC` (configuration not stated), the activity score is 593% (active).

Take `Cc1ccccc1OC(=O)Cn1c(C(F)(F)F)nc2ccccc21`: the activity score is -13% (inactive).

For `COc1cc(C(=O)NCc2nnc(SCC(=O)c3ccc(Cl)cc3)o2)cc(OC)c1OC`, the activity score was -3.27% (inactive). With `O=C(COc1ccc(Cl)cc1)NCc1nnc(SCC(=O)NCC2CCCO2)o1` (configuration not stated), the activity score was 199% (active). As to `COc1ccc2c(C)cc(SCC(=O)NCC3CCCO3)nc2c1` (configuration not stated), the activity score is -4.78% (inactive). Turning to `O=S(=O)(N[C@@H]1CC[C@@H](CCn2cc(-c3ccccn3)nn2)O[C@@H]1CO)c1cccc(Cl)c1`, the activity score was -16.7% (inactive). For the compound `C[C@@H]1CN([C@@H](C)CO)C(=O)c2cccc(NC(=O)Nc3ccc4c(c3)OCO4)c2O[C@@H]1CN(C)C(=O)Nc1ccc(F)cc1`, the activity score is -5.75% (inactive). For the compound `CS(=O)(=O)Nc1ccc2c(c1)[C@H]1C[C@@H](CC(=O)N3CCOCC3)O[C@@H](CO)[C@H]1O2`, the activity score is -23.5% (inactive). `C[C@H](CO)N1C[C@H](C)[C@@H](CN(C)S(C)(=O)=O)Oc2cc(C#CC3CC3)ccc2S1(=O)=O`: the activity score was 13.1% (inactive). Take `O=C(Nc1ccccc1N1CCCC1)c1ccc2ccccc2c1`: the activity score was -12.9% (inactive). For `O=C(NC(=S)Nc1ccccc1N1CCCCC1)c1ccc(F)cc1`, the activity score was -15.2% (inactive). The same measure for `c1ccc(-n2cccc2)c(N2CCCCC2)c1`: 101% (active). Turning to `C[C@@H]1CCCCO[C@H](CN(C)Cc2ccccc2)[C@@H](C)CN([C@@H](C)CO)C(=O)c2cc(NC(=O)Nc3ccc(F)cc3)ccc2O1`, the activity score was 33.7% (inactive). For `C[C@H](CO)N1C[C@H](C)[C@@H](CN(C)C)Oc2c(NC(=O)Nc3ccc(F)cc3)cccc2C1=O`, the activity score is 17.5% (inactive). With `CC(C)C#Cc1ccc2c(c1)O[C@H](CN(C)Cc1ccccn1)[C@H](C)CN([C@H](C)CO)S2(=O)=O`, the activity score is -7.68% (inactive). For `CO[C@H]1CN(C)C(=O)c2cc(NC(=O)C3CCCCC3)ccc2OC[C@H](C)N(C(=O)c2ccccc2)C[C@H]1C`, the activity score is -6.56% (inactive). For `C[C@H](CO)N1C[C@H](C)[C@H](CN(C)S(=O)(=O)c2cn(C)cn2)Oc2c(NC(=O)C3CCOCC3)cccc2C1=O`, the activity score is -12.8% (inactive). As for `COc1ccc(NC(=O)N(C)C[C@@H]2OCCCC[C@@H](C)Oc3ccc(NC(=O)NC4CCCCC4)cc3C(=O)N([C@H](C)CO)C[C@@H]2C)cc1`, the activity score is 2.02% (inactive). On to `COc1ccc(NC(=O)N(C)C[C@H]2OCCCC[C@@H](C)Oc3ccc(NC(=O)NC4CCCCC4)cc3C(=O)N([C@H](C)CO)C[C@H]2C)cc1`, for which the activity score is 21.6% (inactive). For the compound `COc1ccc(NC(=O)N(C)C[C@H]2OCCCC[C@@H](C)Oc3ccc(NC(=O)NC4CCCCC4)cc3C(=O)N([C@@H](C)CO)C[C@H]2C)cc1`, the activity score was 107% (active). For `C[C@@H]1CN([C@H](C)CO)C(=O)c2cc(C#CC3CCCC3)cnc2O[C@H]1CN(C)C(=O)C1CC1`, the activity score was -6.27% (inactive). On to `C[C@@H]1CN([C@H](C)CO)C(=O)Cc2cc(NS(=O)(=O)c3ccc(Cl)cc3)ccc2O[C@H]1CN(C)S(=O)(=O)c1cccs1`, for which the activity score is -8.01% (inactive). `O=C(Cc1ccncc1)NCC[C@@H]1CC[C@H](NC(=O)Nc2ccc(Cl)cc2)[C@@H](CO)O1`: the activity score was 34.2% (inactive). Take `CC1CCN(C(=O)/C(=C\c2ccccc2)NC(=O)c2ccccc2)CC1`: the activity score was -8.7% (inactive). For `Cc1ccc(C(=O)N/C(=C\c2cn(C)c3ccccc23)C(=O)N2CCN(C)CC2)cc1`, the activity score is 0.501% (inactive). As for `CN1CCN(C(=O)/C(=C\c2cccs2)NC(=O)c2cccs2)CC1`, the activity score is 0.022% (active).

For `CCNC(=O)C[C@@H]1CC[C@@H]2[C@H](COc3ccc(NS(=O)(=O)c4ccccc4C)cc3C(=O)N2C)O1`, the activity score is -8.72% (inactive). Next, `O=C(C[C@@H]1C=C[C@H](NC(=O)c2ccc3c(c2)OCO3)[C@H](CO)O1)NCc1ccc(Oc2ccccc2)cc1`: 8.13% (inactive); `Cc1noc(C)c1S(=O)(=O)N(C)C[C@@H]1OCCCC[C@H](C)Oc2ccc(NC(=O)NC(C)C)cc2C(=O)N([C@H](C)CO)C[C@@H]1C`: 27% (inactive).

Turning to `CC(C)C#Cc1cnc2c(c1)C(=O)N([C@@H](C)CO)C[C@@H](C)[C@@H](CN(C)C(=O)c1cccc(F)c1)O2`, the activity score was 0.693% (inactive). As to `C[C@@H]1CCCCO[C@@H](CN(C)C(=O)C2CCCCC2)[C@H](C)CN([C@H](C)CO)C(=O)c2cc(NC(=O)CCC(F)(F)F)ccc2O1`, the activity score is 21.1% (inactive).

Consider `COc1ccccc1CNC(=O)C[C@@H]1CC[C@H](NC(=O)CN(C)C)[C@@H](CO)O1`, for which the activity score was -14.1% (inactive). With `COc1ccc(NC(=O)Nc2ccc3c(c2)C(=O)N([C@@H](C)CO)C[C@@H](C)[C@H](CN(C)C(=O)CCC(F)(F)F)OCCCC[C@@H](C)O3)cc1`, the activity score is 5.29% (inactive).

Regarding `COc1cccc(-c2ccc3c(c2)O[C@H](CN(C)C(=O)c2ccccc2F)[C@@H](C)CN([C@@H](C)CO)S3(=O)=O)c1`, the activity score is 0.848% (inactive). Turning to `CCCNC(=O)[C@@H]1[C@@H](CO)[C@@H]2Cn3c(ccc(-c4cccc(OC)c4)c3=O)[C@H]1N2C(=O)NCCC`, the activity score is 4.04% (inactive). In the case of `C[C@H]1CN([C@@H](C)CO)C(=O)Cc2cc(NS(=O)(=O)c3ccc(Cl)cc3)ccc2O[C@H]1CN(C)S(C)(=O)=O`, the activity score is -4.94% (inactive). The same measure for `Cn1nc(-c2ccccc2)c(-c2nc(-c3ccc(Cl)cc3)no2)c1Cl`: -23.8% (inactive). With `Cc1onc(-c2ccc(Cl)cc2)c1-c1ccnn1S(=O)(=O)c1ccc(Cl)cc1`, the activity score was 174% (active). Turning to `COc1cc(-c2c(-c3ccc4c(c3)OCO4)noc2C)ccc1F`, the activity score is -5.42% (inactive). As for `C[C@H]1CN([C@@H](C)CO)S(=O)(=O)c2ccc(Br)cc2O[C@H]1CN(C)C(=O)C1CC1`, the activity score is 11.3% (inactive). For `CO[C@@H]1CN(C)C(=O)c2cc(NC(C)=O)ccc2OC[C@H](C)N(C(=O)Cc2ccccn2)C[C@@H]1C`, the activity score was -3.54% (inactive). With `C[C@@H]1CN([C@@H](C)CO)C(=O)c2cc(NC(=O)c3ccncc3)ccc2O[C@H]1CN(C)S(=O)(=O)c1ccc(Cl)cc1`, the activity score is 0.708% (inactive). The same measure for `C[C@@H]1CN([C@@H](C)CO)C(=O)c2cc(Br)cnc2O[C@@H]1CN(C)C(=O)C1CCCCC1`: 137% (active) and -1.46% (inactive); for `C[C@@H]1CN([C@H](C)CO)C(=O)c2cc(Br)cnc2O[C@@H]1CN(C)C(=O)C1CC1`: -8.5% (inactive); for `C[C@H]1CN([C@@H](C)CO)C(=O)c2cc(-c3ccncc3)cnc2O[C@@H]1CN(C)C(=O)C1CCCCC1`: -11.6% (inactive). Next, `CCC(=O)N(C)C[C@H]1Oc2cc(-c3cccc(C#N)c3)ccc2S(=O)(=O)N([C@@H](C)CO)C[C@@H]1C`: 12.2% (inactive); `CCS(=O)(=O)Nc1ccc2c(c1)C(=O)N(C)[C@H]1CC[C@H](CC(=O)Nc3ccccc3)O[C@@H]1CO2`: 1.74% (inactive); `CC(C)NC(=O)N[C@H]1CC[C@@H](CCNC(=O)C2CCC2)O[C@@H]1CO`: -11.4% (inactive). Turning to `COc1ccccc1-c1ccc([C@@H]2[C@@H](CO)N3CCCCN(S(=O)(=O)c4cn(C)cn4)C[C@H]23)cc1`, the activity score is -0.721% (inactive). As to `COc1ccc(NC(=O)N(C)C[C@@H]2Oc3ccc(NC(=O)Cn4cnnn4)cc3C(=O)N([C@H](C)CO)C[C@@H]2C)cc1`, the activity score was 2.52% (inactive).

Take `O=C(N[C@H]1CC[C@H](CCNS(=O)(=O)c2ccc(F)cc2)O[C@H]1CO)c1cccnc1`: the activity score was -1.19% (inactive). On to `C[C@H]1CCCCO[C@@H](CN(C)Cc2ccc3c(c2)OCO3)[C@@H](C)CN([C@@H](C)CO)C(=O)c2cc(NC(=O)Nc3ccc(F)cc3)ccc2O1`, for which the activity score was 18.3% (inactive).

For the origin of these results see PubChem BioAssay AID602363 (Broad Institute, 2012).
